Target: T1, cannabinoid CB1 receptor (Homo sapiens, UniProt P21554)
T1 construct: expressed in transfected cells; host or cells: HeLa (ATCC), calcium phosphate transient transfection
Assay: cAMP accumulation, HeLa cells transfected with CB1 receptor, D1 receptor and AC7
Type: cell-based
Conditions: AM251 10 μM with DA and DCUK-OEt

By UniProt entry, the sequences of proteins in these tests, tags left out.
UniProt P21554, whole entry: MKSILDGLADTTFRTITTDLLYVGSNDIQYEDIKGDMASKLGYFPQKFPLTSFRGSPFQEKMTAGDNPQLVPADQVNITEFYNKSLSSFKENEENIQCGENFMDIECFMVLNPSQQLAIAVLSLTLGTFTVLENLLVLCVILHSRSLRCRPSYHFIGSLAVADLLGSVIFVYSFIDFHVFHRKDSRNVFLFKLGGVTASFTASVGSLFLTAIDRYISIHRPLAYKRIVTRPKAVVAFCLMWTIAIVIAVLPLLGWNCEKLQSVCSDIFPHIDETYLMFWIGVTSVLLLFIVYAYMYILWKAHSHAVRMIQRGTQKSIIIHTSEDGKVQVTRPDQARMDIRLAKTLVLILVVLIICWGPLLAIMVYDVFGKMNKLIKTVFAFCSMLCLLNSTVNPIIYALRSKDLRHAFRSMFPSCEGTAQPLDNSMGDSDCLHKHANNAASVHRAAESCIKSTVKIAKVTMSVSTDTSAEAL

## Cc1c(C(=O)NN2CCCCC2)nn(-c2ccc(Cl)cc2Cl)c1-c1ccc(I)cc1 [AM251, reference compound]
  Effect of CB1 receptor antagonist on the cAMP increase: eliminated the DCUK-OEt effect

Reference: patent US10435371B2, “Multifunctional aminoquinoline therapeutic agent” (LOHOCLA RESEARCH CORPORATION, priority 2014, dated 2019)
